Measured values published in ChEMBL document CHEMBL1135549, “Oxygenated metabolites of anandamide and 2-arachidonoylglycerol: conformational analysis and interaction with cannabinoid receptors, membrane transporter, and fatty acid amide hydrolase” (J Med Chem, 2002).

Biological target: T1, Cannabinoid receptor 2 (Rattus norvegicus, UniProt Q9QZN9)
T1 sequence (Q9QZN9 whole entry): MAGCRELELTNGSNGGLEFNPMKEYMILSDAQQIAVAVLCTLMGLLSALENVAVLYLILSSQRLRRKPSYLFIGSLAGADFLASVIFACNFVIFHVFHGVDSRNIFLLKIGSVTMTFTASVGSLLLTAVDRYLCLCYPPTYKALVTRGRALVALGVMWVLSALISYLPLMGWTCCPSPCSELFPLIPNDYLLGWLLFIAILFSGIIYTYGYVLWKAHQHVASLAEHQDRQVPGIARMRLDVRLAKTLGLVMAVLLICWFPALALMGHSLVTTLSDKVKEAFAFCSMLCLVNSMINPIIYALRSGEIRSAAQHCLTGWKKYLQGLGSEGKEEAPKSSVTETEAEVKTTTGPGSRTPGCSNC
Assay: Displacement of [3H]CP-55940 from rat forebrain membrane which expresses Cannabinoid receptor 2 in the presence of PMSF

CCCCC/C=C\C/C=C\C/C=C\C/C=C\CCCC(=O)NCCO [ANANDAMIDE]
Ki: 360 nM
